# Earlier results, collected in patent publication US8765126B2, “Methods of treating complications and disorders associated with G-CSF administration” (priority 2011, dated 2014).
# Target: T1, E-selectin (Homo sapiens, UniProt P16581)
# T1 sequence (P16581 22-610): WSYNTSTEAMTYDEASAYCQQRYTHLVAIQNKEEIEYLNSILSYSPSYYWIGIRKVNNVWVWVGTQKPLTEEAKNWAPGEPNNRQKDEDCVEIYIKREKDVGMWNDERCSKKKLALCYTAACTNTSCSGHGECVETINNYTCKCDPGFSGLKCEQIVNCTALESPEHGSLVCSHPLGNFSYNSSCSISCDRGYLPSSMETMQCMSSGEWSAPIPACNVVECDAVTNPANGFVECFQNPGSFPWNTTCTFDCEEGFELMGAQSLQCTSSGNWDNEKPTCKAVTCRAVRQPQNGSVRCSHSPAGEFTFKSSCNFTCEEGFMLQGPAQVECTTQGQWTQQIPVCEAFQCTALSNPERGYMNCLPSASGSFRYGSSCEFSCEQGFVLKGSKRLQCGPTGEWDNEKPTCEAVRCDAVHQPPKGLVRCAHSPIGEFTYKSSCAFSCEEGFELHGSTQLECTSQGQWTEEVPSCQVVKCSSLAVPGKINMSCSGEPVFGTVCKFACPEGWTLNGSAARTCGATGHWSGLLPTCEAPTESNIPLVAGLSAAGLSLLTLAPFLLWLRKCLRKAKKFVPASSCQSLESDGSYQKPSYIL
# Conditions: administration of SLe^x; cited from earlier work
substance,measurement,value
Sialyl Lewis X [SLe^x],SLe^x/E-selectin interaction,inhibits
same,adhesion of neutrophils to endothelial cells,blocks
